Assay [1] deals with T1, OccJ WT (Agrobacterium tumefaciens, UniProt P0A4F8).
T1 construct: The mature PBP OccJ (256 aa without the signal peptide) expression plasmid was obtained by cloning the occJ gene lacking the first twenty residues; hexahistidine (C); made in house; host or cells: E. coli BL21
The format is binding. Particulars: intrinsic protein fluorescence titration; 20 °C; 50 mM Tris-HCl pH 8.0, 150 mM NaCl; 1 µM protein; read-out: K D (F). The protocol:
(§1) Binding of ligands to OccJ, NocT, LAO and protein mutants was monitored by autofluorescence by exciting the protein at a wavelength of 295 nm and monitoring the quenching of fluorescence emission of tryptophans at 335 nm. All experiments were performed at 20 °C in 96 wells plates (1/2 Area Plate-96F, Perkin Elmer) using Tecan Infinite M1000 reader (Tecan), in 50 mM Tris-HCl pH 8.0, 150 mM NaCl buffer with a fixed amount of proteins (1 µM) and increasing concentrations of ligand. […] The data were analysed using Origin® 7 software and fitted to the equation f = ΔFluorescencemax * abs(x)/(K D + abs(x)).

The chains behind the UniProt entries cited, without tags or fusion partners. Residues count along the entry.
UniProt P0A4F8, 21-276: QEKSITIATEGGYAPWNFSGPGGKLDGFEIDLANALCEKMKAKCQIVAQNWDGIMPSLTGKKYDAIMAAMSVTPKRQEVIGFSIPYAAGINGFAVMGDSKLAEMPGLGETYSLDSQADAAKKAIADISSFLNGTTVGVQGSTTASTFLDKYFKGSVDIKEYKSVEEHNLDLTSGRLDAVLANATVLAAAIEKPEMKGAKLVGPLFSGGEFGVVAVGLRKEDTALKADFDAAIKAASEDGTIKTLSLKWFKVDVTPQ
UniProt P35120, 26-283: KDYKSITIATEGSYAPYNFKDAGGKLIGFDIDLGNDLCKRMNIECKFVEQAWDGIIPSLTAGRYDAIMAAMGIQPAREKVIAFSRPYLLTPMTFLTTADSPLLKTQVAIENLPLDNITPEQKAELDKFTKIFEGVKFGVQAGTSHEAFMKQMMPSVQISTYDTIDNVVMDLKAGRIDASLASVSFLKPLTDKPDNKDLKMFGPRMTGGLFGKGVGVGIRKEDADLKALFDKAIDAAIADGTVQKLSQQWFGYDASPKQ

In assay [2] the target is T2, NocT WT (Agrobacterium fabrum, UniProt P35120).
T2 construct: Cloning of mature OccJ, NocT-G97S, OccJ-S91G, OccJ-N202D, LAO and LAO-Q122A; made in house
The assay is classed as binding, Agrobacterium tumefaciens. Particulars: ITC, 20 °C. The method, then:
(§2) Isothermal titration microcalorimetry experiments were performed with an ITC200 isothermal titration calorimeter from MicroCal (GE Healthcare). The experiments were carried out at 20 °C. Protein concentration in the microcalorimeter cell (0.2 mL) varied from 20 to 150 µM. Nineteen injections of 2 µL of ligand solution (amino acids, opines and octopine derivatives) at concentration ranging from 240 µM to 1.5 mM were performed at intervals of 180 s while stirring at 500 rpm. The experimental data were fitted to theoretical titration curves with software supplied by MicroCal (ORIGIN®). This software uses the relationship between the heat generated by each injection and ΔH (enthalpy change in kcal/mol), Ka (the association binding constant in M^−1), n (the number of binding sites), total protein concentration and free and total ligand concentrations.

The target of assay [3] is T1, OccJ WT. The assay is described as follows: OccJ WT ligand binding, isothermal titration microcalorimetry. Particulars: ITC, 20 °C. The method, then:
as §2
For orientation: In ITC the heat of successive injections is recorded.

The target of assay [4] is T2, NocT WT. The assay is classed as binding, Agrobacterium tumefaciens. Particulars: fluorescence titration; 20 °C; pH 8.0; octopine family members and analogues; read-out: Kd (F). The protocol: as §1

Where two headings read alike, the source gives them in different places.

With `NCCC[C@H](NCC(=O)O)C(=O)O` [noroctopinic acid], the Kd on OccJ WT [1] came out at 230 ± 400 nM.
homo-octopine: the Kd at NocT WT [2] worked out at 30600 ± 2100 nM; on OccJ WT [1], 230 ± 30 nM; on OccJ WT [3], 530 ± 40 nM; on NocT WT [4] it was 5400 ± 600 nM.

For the origin of these results see publication PMC5740067 (Scientific Reports, 2017).
